## Yeast mating assay 2: variants of the scFv Ab-95

Antigen: PDVDLGDISGINAS, a 14-residue peptide of the SARS-CoV-2 spike HR2 region.

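The library (AAYL52) carries one to three amino acid substitutions per variant, with no insertions or deletions. AlphaSeq pools MATa yeast showing the antibodies with MATalpha yeast showing the peptide. The frequency of each diploid, read from paired DNA barcodes, reflects how well the two displayed proteins bind. Each replicate has its own calibration line, from reference interactions of the BCL2 family. There are three technical replicates.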

The variants keep the heavy chain, the linker and the frameworks of Ab-95 (scFv order VH, the linker GGGGSGGGGSGGGGS, VL).
VH: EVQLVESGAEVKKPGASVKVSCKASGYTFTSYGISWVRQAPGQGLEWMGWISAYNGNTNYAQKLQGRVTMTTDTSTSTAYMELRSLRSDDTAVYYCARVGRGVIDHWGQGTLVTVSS
VL: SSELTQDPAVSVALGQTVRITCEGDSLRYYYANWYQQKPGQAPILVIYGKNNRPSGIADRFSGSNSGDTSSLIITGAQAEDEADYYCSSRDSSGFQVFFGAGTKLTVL

Substitutions are numbered in sequence along the VL above, starting at 1 (not Kabat).
The read-out is the apparent dissociation constant on a log10 scale (nM): the lower, the stronger.
A mean of the replicates is given; it leaves out those without a signal.
"no signal" means that the variant was in the library but no mating with the target was seen in any replicate; the authors take this as a sign of poor binding, and no number exists.
For reference, the parent read 2.31 as the reference entry and 2.25 as a member of this library.
Background: pairings of library AAYL52 with three empty control strains gave a value in 28% of cases (median 3.91, 5th percentile 2.90). Values in that range, when seen in few replicates, are hard to tell from nonspecific mating.

changes	mean log10 Kd (nM)	detected
G24I+Y29E+R53S	5.25	1/3
Y30Q+N51E+R90A	no signal	0/3
G24S+Y30N+Q96A	1.38	3/3
S26Y+N51D+S93I	3.36	2/3
G49W+P54E+S88K	no signal	0/3
R28Y+K50I+F95A	2.93	3/3
A32R+K50Y+N52V	3.24	2/3
S26D+Y31V+N33C	4.03	2/3
G24K+Y31G+A32Q	2.84	3/3
K50V+S93N+V97G	3.52	2/3
D25W+N33E+P54M	no signal	0/3
E23I+Y29S+Q96E	2.06	3/3
L27N+S55K+Q96N	3.24	3/3
N51G+S55F+Q96L	2.94	3/3
G49A+N52H+G94K	4.56	1/3
Y30A+N33P+D91L	4.97	2/3
R28Q+Y30W+A32F	2.92	3/3
Y30C+G49K	3.73	3/3
N51R+P54F	3.46	2/3
Y29Q+K50D+S89N	2.21	3/3
Y29T+Y30C+R90L	3.05	2/3
D91K+V97Y+F98M	1.99	3/3
Y31S+P54Y+S55Y	2.69	3/3
G24C+P54A+S88A	2.86	3/3
L27Y+N33I	no signal	0/3
Y29W+A32F+D91C	3.25	2/3
R90Q+V97M+F98S	2.27	3/3
Y31D+D91C+F95V	2.99	3/3
Y31A+K50P+S92G	1.81	3/3
S88E+F98A	4.15	2/3
S26M+Y31A+K50V	2.55	3/3
Y30I+Y31I+A32F	3.32	1/3
D25F+L27W+N52L	5.10	1/3
S26N+P54T+S55F	4.35	2/3
P54D+G94D+F95G	3.25	3/3
S55M+S92M	2.76	3/3
G24N+S55H+V97F	4.46	2/3
S26G+R90Q+F95E	2.31	3/3
D25A+S89L+R90I	1.79	3/3
E23A+S26E+S89D	3.61	3/3
E23A+G24T+Q96P	3.57	2/3
L27A+S92F+V97M	4.00	3/3
G24V+N51W+P54K	3.58	1/3
N33H+G94L+F98A	3.39	1/3
Y31H+S93F	3.05	3/3
G24A+A32R+S88D	4.22	1/3
Y31H+N52C+F98N	2.65	2/3
N51G+S88E+D91A	no signal	0/3
S55I+S89L+F95M	3.51	2/3
L27S+A32V+D91H	4.68	1/3
E23N+N33L+S92A	4.04	1/3
Y30E+S55D+V97H	1.67	3/3
P54V+S89I+F98L	2.82	3/3
S26Y+R90F+G94P	no signal	0/3
S26W+Y30N+N52A	1.06	3/3
D25C+S92T+V97A	4.56	3/3
S26V+A32G+S88Q	2.76	3/3
D25G+P54G+S89K	3.79	1/3
G24W+K50E+G94K	4.49	3/3
N52S+R53S+V97Y	2.97	2/3
D25T+Y31V+F95E	2.82	3/3

Repeated from above, the 5 best binders with a signal in all replicates:

| changes | mean log10 Kd (nM) | detected |
|---|---|---|
| S26W+Y30N+N52A | 1.06 | 3/3 |
| G24S+Y30N+Q96A | 1.38 | 3/3 |
| Y30E+S55D+V97H | 1.67 | 3/3 |
| D25A+S89L+R90I | 1.79 | 3/3 |
| Y31A+K50P+S92G | 1.81 | 3/3 |

Data: MIT Lincoln Laboratory AlphaSeq set, Engelhart et al. 2022, doi:10.1038/s41597-022-01779-4, as distributed in FLAb.